pIC50: −log10 of the molar value.
Biological target: E-selectin (Homo sapiens, UniProt P16581)
Experiment: E-selectin competitive binding assay (sLe^a polyacrylamide conjugate vs immobilized E-selectin/Ig chimera)
Details: read-out: IC50 (E-Selectin Antagonist Activity)
From the text: An inhibition assay may be used to screen for antagonists of E-selectin. For example, an assay may be performed to characterize the capability of a compound or other agent described herein to inhibit (i.e., reduce, block, decrease, or prevent in a statistically or biologically significant manner) interaction of E-selectin with sLe^a or sLe^x. The inhibition assay may be a competitive binding assay, which allows the determination of IC50 values. […] Variations of such steps can be readily and routinely accomplished by a person of ordinary skill in the art. […]
To determine the amount of sLe^a bound to immobilized E-selectin after washing, the peroxidase substrate, 3,3′,5,5′ tetramethylbenzidine (TMB) was added. After 3 minutes, the enzyme reaction was stopped by the addition of H3PO4, and the absorbance of light at a wavelength of 450 nm was determined.

Sequences of proteins named here, by UniProt entry; tags and fusion partners are left off. Residues count along the entry.
UniProt P16581, 22-175 limits assumed: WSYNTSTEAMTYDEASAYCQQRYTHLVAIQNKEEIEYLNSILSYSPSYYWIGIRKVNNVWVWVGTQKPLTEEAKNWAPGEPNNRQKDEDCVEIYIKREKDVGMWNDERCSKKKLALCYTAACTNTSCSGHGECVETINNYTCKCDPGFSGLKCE

Structure (SMILES): CCC1CC(C(=O)NCCNC(=O)CCOCCOCCOCCOCCOCCOCCOCCOCCOCCOCCOCCOC)CC(OC2OC(CO)C(O)C(OC(CC3CCCCC3)C(=O)N(C)C)C2NC(C)=O)C1OC1OC(C)C(O)C(O)C1O (stereo not shown)
- pIC50: > 5.40

Source: patent US11332491B2, “E-selectin antagonist compounds, compositions, and methods of use” (GLYCOMIMETICS, INC., priority 2011, dated 2022)
